This is an account of results in patent US8980830B2 (priority 2007, dated 2015).

Amino acid sequences for entries named in this document (tags omitted). Residues count along the entry.
UniProt P47871, 26-477: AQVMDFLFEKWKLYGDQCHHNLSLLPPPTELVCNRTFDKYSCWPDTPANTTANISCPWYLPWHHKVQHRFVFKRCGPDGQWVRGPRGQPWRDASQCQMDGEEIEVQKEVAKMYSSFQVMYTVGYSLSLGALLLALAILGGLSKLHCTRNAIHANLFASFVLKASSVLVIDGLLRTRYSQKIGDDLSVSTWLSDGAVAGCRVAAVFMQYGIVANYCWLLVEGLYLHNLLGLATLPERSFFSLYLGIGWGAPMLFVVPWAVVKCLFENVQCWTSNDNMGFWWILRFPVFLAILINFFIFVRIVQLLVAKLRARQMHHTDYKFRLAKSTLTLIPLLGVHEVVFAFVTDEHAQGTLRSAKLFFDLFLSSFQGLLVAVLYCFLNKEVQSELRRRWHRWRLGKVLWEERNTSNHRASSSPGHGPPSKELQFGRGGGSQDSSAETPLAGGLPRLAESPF
UniProt P43220, 24-463: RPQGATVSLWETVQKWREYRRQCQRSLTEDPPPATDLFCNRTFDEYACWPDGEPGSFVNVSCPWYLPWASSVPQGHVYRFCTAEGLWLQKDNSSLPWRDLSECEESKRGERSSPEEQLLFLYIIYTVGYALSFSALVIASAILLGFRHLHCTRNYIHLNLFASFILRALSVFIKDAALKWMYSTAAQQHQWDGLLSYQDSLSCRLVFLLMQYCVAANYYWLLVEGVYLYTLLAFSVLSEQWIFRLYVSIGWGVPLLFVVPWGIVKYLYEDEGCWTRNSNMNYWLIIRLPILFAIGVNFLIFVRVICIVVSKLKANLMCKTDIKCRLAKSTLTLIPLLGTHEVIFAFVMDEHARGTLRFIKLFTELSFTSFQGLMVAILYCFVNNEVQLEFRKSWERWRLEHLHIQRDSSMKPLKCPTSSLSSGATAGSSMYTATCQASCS

As usually defined, the IC50 is the concentration that gives 50% inhibition. What is called EC50 is the concentration giving half of the maximal effect.

Assay [1] deals with Glucagon Receptor (Homo sapiens, UniProt P47871). As to the kind of experiment: cAMP inhibition: antagonism of glucagon-induced cAMP at glucagon receptor. It is filed as cell-based. More on the design: expressed in transfected cells; host or cells: HEK293. The following applies: IC50 at the glucagon receptor in response to 0.2 nM glucagon, Example 22; two assays, SD in parentheses.

For assay [2], the target named is GLP-1 Receptor (Homo sapiens, UniProt P43220). As to the kind of experiment: Functional assay, cAMP induction (luciferase reporter, HEK293) at GLP-1 receptor. It is filed as cell-based. The following applies: EC50 at the GLP-1 receptor, Example 22; SD in parentheses.

“And” between values parts separate entries of the source, which are not always exact repeats. Identical values can stand only once.

Consider `CSCC[C@H](NC(=O)[C@H](CC(C)C)NC(=O)[C@H](Cc1c[nH]c2ccccc12)NC(=O)[C@H](CCC(N)=O)NC(=O)[C@@H](NC(=O)[C@H](Cc1ccccc1)NC(=O)[C@H](CC(=O)O)NC(=O)[C@H](CCC(N)=O)NC(=O)[C@H](C)NC(=O)[C@H](CCCNC(=N)N)NC(=O)[C@H](CCCNC(=N)N)NC(=O)C(C)(C)NC(=O)[C@H](CC(=O)O)NC(=O)[C@H](CC(C)C)NC(=O)[C@H](Cc1ccc(O)cc1)NC(=O)[C@H](CCCCN)NC(=O)[C@H](CO)NC(=O)[C@H](Cc1ccc(O)cc1)NC(=O)[C@H](CC(=O)O)NC(=O)[C@H](CO)NC(=O)[C@@H](NC(=O)[C@@H](O)Cc1ccccc1)[C@@H](C)O)C(C)C)C(=O)N[C@@H](CC(N)=O)C(=O)N[C@H](C(N)=O)[C@@H](C)O` [SEQ ID NO: 97], for which the IC50 in assay [1] was 7.04 nM and 22 nM. In addition, the EC50 in assay [2] is 795 nM.
